Assay results as given in patent US6515112B2, “Cores for technetium radiopharmaceuticals” (Amersham PLC, priority 1989, dated 2003).

Test: Animal biodistribution studies of 99mTc complexes in rats
Format: in vivo, Male Sprague Dawley rats
Details: i.v. tail vein, Time P. I. 2
Description: Complex Preparation: 20-25 μl of hydrazine was added to 2 cm^3 of absolute ethanol, then ^99mTcO4^−(0.2-3.0 GBq) and 10 mg of ligand were added to the solution. This mixture was heated to 120° C. for 30-60 minutes, cooled to room temperature and analyzed. For biodistribution studies the total volume of he preparation was made up to 5 cm^3 by the addition of sterile saline solution.
Animal Biodistribution Studies: Six Male Sprague Dawley rats were infected while under light ether anaesthesia with 0.1 cm^3 of preparation (i.v., tail vein) and half were sacrificed by cervical dislocation while under ether anaesthesia at the appropriate time interval post-infection and dissected. Organs were weighed and their activities measured in an ionisation chamber. For the purposes of calculations blood was assumed to constitute 5.8% of the total body weight, muscle was assumed to be 43% and the lungs were assumed to weigh 1 g.

CP(C)COCP(C)C (99mTc complex, metal not drawn) [PL28]
S. I.: 13.2
